These results are taken from US7718768B2, “Biologically active peptide [sequence]” (CMS Peptides Patent Holding Company Limited, priority 2001, dated 2010).

For one experiment, the system named is NK cell. Nature of the experiment: NK cell activity in mice with ascitic fluid type liver cancer H22. It is filed as in vivo, BALB/c mice. The following applies: 3 × 10^5 IU/kg i.p. once per day. As to the method: (§1) Healthy BALB/c mice were randomized into peptide group, rmIFN-γ group, rhIL-2 group, and saline group, 15 mice per group, and prepared into H22 carrying mice model as described in section Method 3. After implantation of the cancer cells, the test substances were administered for 15 days, the mice were killed by cervical dislocation. The spleen was isolated aseptically and manually dispersed in cold D-Hank's solution using an injection needle. The dispersed cell suspension was further sieved through a 100-gauge 150 μm diameter stainless steel sieve. After centrifugation at 200 g for 10 minutes, the supernatant was discarded. The cell pellet was re-suspended in 10 volume of Tris-NH4Cl buffer and then kept standing still for 10 minutes at room temperature. The suspended cells were collected by centrifugation at 150 g for 10 minutes. The cells were washed 2-4 times with cold D-Hank's solution by re-suspending and collecting by centrifugation with condition as described above. The washed cells were then diluted to the desired cell densities by RPMI-1640 culture medium, containing 10% fetal bovine serum.
Mice spleen cells were prepared to 4×10^6/ml as described in section 4.1 above. […]
Samples were centrifuged at 150 g for 10 minutes to collect the cells. […] An ELISA reader was used to obtain OD570nm of each well referenced at 630 nm. […]

Experiment [1] has as its system ascitic fluid type liver cancer H22. In words: survival of mice with transplanted ascitic fluid type liver cancer H22. It is filed as in vivo, BALB/c mice. Conditions: 3 × 10^5 IU/kg i.p. once per day. As to the method: (§2) Intraperitoneal injection, once per day. […] The cyclophosphamide groups were treated on the next day after transplanting the cancer cells. Treatment of all groups with testing substance lasted for 30 days or until the animal died unless otherwise specified.
Stock H22 cells were incubated in DMEM/F12 medium supplemented with 10% fetal bovine serum, 37° C./5% CO2 for 72 hrs, then washed 3-4 times with Hank's solution at room temperature. Adjust cell concentration to 1-2×10^9 per liter with Hank's solution. 0.2 ml of the cell suspension was implanted to the abdominal cavity of several BALB/c mice for 6-8 days. The mice were killed by cervical vertebra dislocation. Ascitic fluid of the mice was collected asceptically and the cell concentration adjusted to 1×10^6 per ml with Hank's solution. 0.2 ml of the cell suspension was implanted into the abdominal cavity of healthy mice to generate the H22 carrying mouse model for ascitic fluid type liver cancer. Administration of test substance started as described in section Method 1. Survival data of the mice was recorded. If the animal survived longer than the experiment, the survival days was recorded as the duration of the experiment. […] The survival index was calculated according to the following formula: Survival index(mean survival days in treatment group−mean survival days of control group)÷mean survival days of control group×100% 4. […]

The subject of experiment [2] is T lymphocyte. In words: T lymphocyte transformation in mice with ascitic fluid type liver cancer H22. The experiment is classed as in vivo, BALB/c mice. Conditions: 3 × 10^5 IU/kg i.p. once per day. Here is the method:
as §1, with “serum. […]” for “serum.”
50 μl/well MTT of 1 mg/ml in RPMI-1640 was added to the cell pellet and the cells re-suspended by shaking for 2 minutes. […] Use an ELISA reader to obtain OD570nm of each well referenced at 630 nm. […]

Experiment [3] relates to T lymphocyte. The arrangement: species or system BALB/c mice. The following applies: mouse, in vivo, ip.
The next experiment deals with L1210 leukemia. In words: survival of mice with transplanted L1210 leukemia. It is filed as in vivo, DBA/2 mice. The following applies: 3 × 10^5 IU/kg i.p. once per day. Here is the method:
as §2
Stock L1210 cells were incubated in DMEM/F12 medium supplemented with 10% fetal bovine serum, 37° C./5% CO2 for 72 hrs, then washed 3-4 times with Hank's solution, and adjusted to 1×10^5 cells per liter. 0.1 ml of the cell suspension was implanted into the abdominal cavity of several healthy DBA mice for 6-8 days. The mice were then killed by cervical vertebra dislocation and their ascitic fluid collected aseptically. The cell concentration of the collected ascitic fluid was adjusted to 1×10^5 per ml with Hank's solution. 0.1 ml of the cell suspension was implanted into each of the testing animal and the survival data of the animals recorded. Treatment started in the testing animals as described in section Method 1. Mean survival day was obtained by the Kaplan-meier method in the Survival option of the SPSS software. If the animal survived longer than the experiment, the survival days was entered as the duration of the experiment. The survival index was calculated according to the following formula: Survival index=(mean survival days of treatment group−mean survival days of control group)÷mean survival days of control group 6. […]

Values joined by “and” are separate entries in the source; they are usually repeats but may differ in a detail not shown here. Identical values can stand only once.

Regarding “IL-2: recombinant human interleukin-2, Shanghai Huaxin Biotech Inc.; positive control immunostimulant”, the NK activity index in the experiment on NK cell came to 26.0 ± 9.0%. For the same substance, the Survival days in experiment [1] was found to be 13.6 ± 0.5 days; with L1210 leukemia, 32.0 ± 13.7 days. Besides, the Stimulation index in the experiment on T lymphocyte [2] was found to be 1.46 ± 0.21. For the same substance, the “activity of T lymphocyte in secreting IFN” value with T lymphocyte [3] was 120 ± 13 IU and 113 ± 17 IU and 105 ± 14 IU and 107 ± 13 IU. This substance also returned a Survival index in the experiment with L1210 leukemia (versus saline group) of 92.3%.
